How the values were obtained:
[1] = system: phosphorylated EGFR (p-EGFR); test: Western blot of phosphorylated EGFR in NCI-H1975 cells; format: cell-based; conditions: 12 h
Description: (§1) Cells were suspended in lysis buffer (50 mM Tris-HCl (pH 7.4), 150 mM NaCl, 1% triton X-100, 1% sodium deoxycholate, 0.1% SDS, 1 mM Na3VO4, 1 mM NaF, 1 mM EDTA, 1 mM PMSF, complete protease inhibitor cocktail) and cleared by centrifugation to obtain whole-cell lysates. Equal amounts of samples were separated by SDS-PAGE, transferred to nitrocellulose and immunoblotted with antibody indicated.

[2] = system: phosphorylated EGFR (p-EGFR); test: Western blot of phosphorylated EGFR in HCC827 cells; format: cell-based; conditions: gefitinib-sensitive HCC827 cells, 12 h
Description: as §1

**Q.** Which “down-regulation of phosphorylated EGFR (p-EGFR)” value [1] does the source give for `COc1cc2ncnc(Nc3ccc(F)c(Cl)c3)c2cc1OCCCN1CCOCC1` [Gefitinib, N-(3-chloro-4-fluoro-phenyl)-7-methoxy-6-(3-morpholin-4-ylpropoxy) quinazolin-4-amine] here?
**A.** The value was “failed to down-regulate”.

**Q.** And the “de-phosphorylation of p-EGFR” value [2]?
**A.** Its value is “induced de-phosphorylation”.
